Consider 1 substance from patent US12421495B2, “Compositions and methods for selective phagocytosis of human cancer cells” (THE TRUSTEES OF THE UNIVERSITY OF PENNSYLVANIA, priority 2015, dated 2025).

Assay [1] concerns tdTomato A549 tumors. Nature of the assay: In vivo tumor growth, WT tdTomato A549 tumors. The settings on record: A′PB MΦ day 0 plus twice per week tail-vein targeting Ab after day-3. Further details: species or system NSG mice. Here is the method:
Establishment of A549 tumors In Vivo. CD47 knockdown and control cells were dissociated from tissue culture flasks using 10 mM EDTA in PBS. 10^6 cells per injection were suspended in 100 μL ice cold PBS and 25% Matrigel (BD) and injected subcutaneously in the flank of non-obese diabetic/severe combined immunodeficient (NOD/SCID) mice with null expression of interleukin-2 receptor gamma chain (NSG mice). Treatment groups were a mix of male and female mice. All animal experiments were planned and performed according to IACUC protocols.
In Vivo Tumor Imaging. Mice were anesthetized via inhalation of isoflurane at 3 L/min and maintained at 1.5 L/min. Images were acquired using a Perkin Elmer IVIS Spectrum with excitation and emission filters set at 535 nm and 580 nm respectively optimized for tdTomato imaging. […] Mouse fur was soaked with ethanol to reduce auto fluorescence prior to imaging. Three Fluorescent standards were used to subtract background fluorescence and calibrate imager. Images were analyzed in Image J where the length and width of the td tomato tumor was measured. […]
Adoptive Transfer of NSG Bone Marrow. […] Cells were then washed, resuspended in 0.1% FBS/PBS, counted and volume adjusted to allow injection of 106 cells. Remaining cells were analyzed by flow cytometry to establish initial composition. […]

For assay [2], the system named is tdTomato A549 tumors. As to conditions: 50-fold higher doses; Hsu et al. 2010; cited from earlier work.

Regarding Cetuximab, the “tumor shrinkage by day 10” value in assay [1] is reported as −15%. For the same substance, in assay [2], the “effect of injections on A549 tumor growth” value is listed as “delayed growth of A549 tumors by about half”.
